Test results from PubChem BioAssay AID492956 (The Scripps Research Institute Molecular Screening Center, 2010).
This is a selection; strong and weak results do not stand in their true shares. Activity calls are given as the source filed them.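 How the source made its calls: active means inhibition above the mean over all tested compounds plus 3 SD (cut at about 30% in these data); inactive means the rest.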

Each molecule was assayed against Platelet-activating factor acetylhydrolase 2, cytoplasmic (Homo sapiens) (UniProt Q99487) (assay: PAFAH2 enzyme inhibitors, primary screen, biochemical, fluorescence polarization, human (AID 492956;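 further: inhibitors block probe labeling of enzyme so polarization drops; 0% = enzyme with DMSO and 100% = wells lacking PAFAH2 protein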)). Details: recombinant PAFAH2, FP-rhodamine activity probe, at 3.39 µM, stronger effect = higher value.

**Q.** With `C[C@H]1OP(=O)(Oc2ccccc2)[C@H](O)[C@H](O)[C@H]1N=[N+]=[N-]` (some centres undefined) as the molecule, how does the inhibition read?
**A.** The inhibition was inactive: -0.03%.

**Q.** `O=P(Nc1nc2ccccc2s1)(c1ccccc1)c1ccccc1` was tested. Which inhibition did it give?
**A.** Its inhibition is inactive: 4.98%.

**Q.** `O=P(Nc1ccccn1)(c1ccc(Br)cc1)c1ccc(Br)cc1` was tested. Which inhibition did it give?
**A.** Its inhibition is inactive: 0.28%.

**Q.** For `CN(C)C1(CNC(=O)c2ccc(Cl)c(S(N)(=O)=O)c2)CCCCC1`, which inhibition is on record?
**A.** Its inhibition is inactive: 4.77%.

**Q.** How did the inhibition turn out when `COc1ccc(N)c([N+](=O)[O-])c1[N+](=O)[O-]` was run?
**A.** The inhibition was inactive: 10.1%.

**Q.** With `CN(C)C(=O)Oc1noc2ccccc12` as the molecule, how does the inhibition read?
**A.** Its inhibition is inactive: 8.49%.

**Q.** Which inhibition does the source give for `O=c1c2cc([N+](=O)[O-])ccc2[nH]c2c([N+](=O)[O-])cc([N+](=O)[O-])cc12` here?
**A.** Its inhibition is inactive: 10.1%.

**Q.** How did the inhibition turn out when `Cc1ccccc1OP(=O)(Nc1ccccn1)Oc1ccccc1C` was run?
**A.** Its inhibition is inactive: 10.4%.

**Q.** With `CC(NC(=O)COC(=O)C(O)(c1ccccc1)c1ccccc1)c1ccccc1` (centres undefined) as the molecule, how does the inhibition read?
**A.** The inhibition was inactive: 5.45%.

**Q.** How did the inhibition turn out when `CCC(=O)N1C2C3N(C(=O)CC)C1C1N(C(=O)CC)C(C(N1C(=O)CC)N3C(=O)CC)N2C(=O)CC` was run?
**A.** Its inhibition is inactive: -4.4%.

**Q.** With `O=C(OC1CN2CCC1CC2)c1ccccc1` (centres undefined) as the molecule, how does the inhibition read?
**A.** The inhibition was inactive: 4.56%.

**Q.** `Cc1ccc(OP(=O)(Nc2ccccn2)Oc2ccc(C)cc2)cc1` was tested. Which inhibition did it give?
**A.** The inhibition was inactive: 1.15%.

**Q.** How did the inhibition turn out when `CC(=O)NC(SC(=S)N(CC(C)C)CC(C)C)C(Cl)(Cl)Cl` (centres undefined) was run?
**A.** The inhibition was inactive: 0.7%.

**Q.** How did the inhibition turn out when `COC(=O)c1cc2c(s1)N=C(c1ccccc1)N(C)P2(=O)N1CCOCC1` (centres undefined) was run?
**A.** The inhibition was inactive: 0.36%.

**Q.** How did the inhibition turn out when `O=P1(N(CCCl)CCCl)OCCC2CCCCN21` (centres undefined) was run?
**A.** Its inhibition is inactive: -3.66%.

**Q.** How did the inhibition turn out when `CCNC(=S)/N=C(\N)N[N+](=O)[O-]` was run?
**A.** The inhibition was inactive: -1.79%.

**Q.** `O=C(NC1CCS(=O)(=O)C1)NP(=S)(Oc1ccccc1)Oc1ccccc1` (centres undefined) was tested. Which inhibition did it give?
**A.** Its inhibition is inactive: 8.43%.

**Q.** Which inhibition does the source give for `CC(=O)Nc1ccc(Oc2c([N+](=O)[O-])cc([N+](=O)[O-])cc2[N+](=O)[O-])cc1` here?
**A.** The inhibition was inactive: 0.07%.

**Q.** With `CC(=O)Nc1ccc([As](=O)(O)O)c(O)c1` as the molecule, how does the inhibition read?
**A.** Its inhibition is inactive: 2.01%.

**Q.** With `C[C@@H]1C=CCP(=O)(Oc2ccccc2)O1` (some centres undefined) as the molecule, how does the inhibition read?
**A.** The inhibition was inactive: 4.13%.

**Q.** How did the inhibition turn out when `C[C@H]1OP(=O)(Oc2ccccc2)C[C@@H]2O[C@@H]21` (some centres undefined) was run?
**A.** Its inhibition is inactive: -1.81%.

**Q.** `Cc1ccccc1CN(C)C(=O)COC(=O)C(O)(c1ccccc1)c1ccccc1` was tested. Which inhibition did it give?
**A.** The inhibition was inactive: -1.93%.

**Q.** `COC(=O)C1(C)COP(=O)(NCc2ccccc2)OC1` (centres undefined) was tested. Which inhibition did it give?
**A.** The inhibition was inactive: 1.36%.

**Q.** Which inhibition does the source give for `N#C/C(=C\c1ccc(N(CCBr)CCBr)cc1)C(N)=O` here?
**A.** The inhibition was inactive: 3.77%.

**Q.** Which inhibition does the source give for `CC(=O)c1ccc(N2CC2c2ccncc2)cc1` (centres undefined) here?
**A.** Its inhibition is inactive: -6.74%.

**Q.** For `CC(C)(C)C(=O)NC(Sc1ccccc1)C(Cl)(Cl)Cl` (centres undefined), which inhibition is on record?
**A.** The inhibition was inactive: 0.89%.

**Q.** `CCc1cc(O)c([N+](=O)[O-])c(C)c1[N+](=O)[O-]` was tested. Which inhibition did it give?
**A.** The inhibition was inactive: -1.47%.

**Q.** `CCOc1ccc(C2=NCC(CBr)S2)cc1` (centres undefined) was tested. Which inhibition did it give?
**A.** Its inhibition is inactive: -1.03%.

**Q.** For `O=P1(Nc2nc3ccc(Cl)cc3s2)COc2ccccc2O1` (centres undefined), which inhibition is on record?
**A.** The inhibition was inactive: 1.47%.
